{
  "source": "patent US7135196B2",
  "about": "“Iron compositions” (Vitra Pharmaceuticals Limited, priority 2000, dated 2006)",
  "origin": "cited, not measured here",
  "data": [
    {"substance": "ferrous gluconate", "values": [
      {"measurement": "solubility in water", "result": "poorly and slowly soluble"}
    ]}
  ]
}
